Results reported in article PMC4176424, “Thiolation-enhanced substrate recognition by D-alanyl carrier protein ligase DltA from Bacillus cereus” (F1000Research, 2014).

Test system: Nc1ncnc2c1ncn2[C@@H]1O[C@H](COP(=O)(O)OP(=O)(O)OP(=O)(O)O)[C@@H](O)[C@H]1O
Test: purified protein
Details: 5 mM D-alanine, no CoA, 10 mM MgCl2, 0.1 M KCl, pH 7.2

BcDltA (D-alanyl carrier protein ligase DltA) (Bacillus cereus ATCC 14579)
Km: 0.46 ± 0.05 × 10^-3 M
kcat: 0.0243 s⁻¹
kcat/Km: 53.3 M⁻¹ s⁻¹
